Columns and labels:
human CB2R [1] = biological target: T1, human CB2R (Homo sapiens, UniProt P34972); assay: ERK1/2 phosphorylation (AlphaScreen SureFire) in HEK-293T-CB2R cells; type: cell-based; settings: 100 nM JWH133, 7 min, 25°C, HEK-293T cells transfected with human CB2R; read-out: IC50 of the block of JWH133-triggered ERK1/2 phosphorylation
T1 construct: host or cells: HEK-293T, transient transfection, living cells

The chains behind the UniProt entries cited, without tags or fusion partners.
UniProt P34972, whole entry: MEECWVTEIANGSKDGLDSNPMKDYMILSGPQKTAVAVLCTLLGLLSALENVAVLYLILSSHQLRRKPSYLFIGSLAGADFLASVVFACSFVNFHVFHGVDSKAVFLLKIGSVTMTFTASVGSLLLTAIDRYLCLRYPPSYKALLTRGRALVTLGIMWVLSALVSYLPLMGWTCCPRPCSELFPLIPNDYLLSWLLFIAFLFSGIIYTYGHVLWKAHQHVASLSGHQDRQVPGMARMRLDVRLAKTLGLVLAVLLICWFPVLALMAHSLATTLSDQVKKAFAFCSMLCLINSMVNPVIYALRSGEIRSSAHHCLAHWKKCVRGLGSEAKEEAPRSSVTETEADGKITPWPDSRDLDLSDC

human CB2R [2] = biological target: T1, human CB2R; assay: Forskolin-induced intracellular cAMP determination in HEK-293T cells expressing CB2R; type: cell-based; settings: 100 nM JWH133, 0.5 μM forskolin, HEK-293T cells expressing human CB2R; read-out: IC50 of the block of JWH133-induced decrease in forskolin-induced cAMP levels
Description: Two hours before initiating the experiment, growth medium was replaced by serum-free DMEM. Then, HEK-293T cells transiently expressing CB2R or GPR55 were detached and resuspended in growing medium containing 50 μM zardaverine and plated in 384-well microplates (2,500 cells/well), pretreated (15 min) with the corresponding antagonists—or vehicle—and stimulated with agonists (15 min) before adding 0.5 μM forskolin or vehicle. Readings were performed after 15 min of incubation at 25°C. HTRF measures were performed using the Lance Ultra cAMP kit (PerkinElmer, Waltham, MA, United States). Fluorescence at 665 nm was analyzed on a PHERAstar Flagship microplate reader equipped with an HTRF optical module (BMG Lab Technologies, Offenburg, Germany).

human CB2R [3] = biological target: T1, human CB2R; assay: HTRF (Tag-lite) competition binding of red CB2R ligand in living HEK-293T cells expressing SNAP-CB2R; settings: 100 nM red CB2R ligand, CBD 0–10 μM, partial competition, read-out: IC50 of competition of fluorescent agonist binding

C=C(C)[C@@H]1CCC(C)=C[C@H]1c1c(O)cc(CCCCC)cc1O [CBD, cannabidiol]
IC50 (human CB2R [1]): 29 ± 0.3 nM | IC50 (human CB2R [2]): 3 ± 0.4 nM | IC50 (human CB2R [3]): 2 to 8 nM

— publication PMC5660261, “Binding and Signaling Studies Disclose a Potential Allosteric Site for Cannabidiol in Cannabinoid CB2 Receptors” (Frontiers in Pharmacology, 2017)
